Protein sequences, listed by entry. Tags and fused reporters are not part of them.
UniProt Q60492, whole entry: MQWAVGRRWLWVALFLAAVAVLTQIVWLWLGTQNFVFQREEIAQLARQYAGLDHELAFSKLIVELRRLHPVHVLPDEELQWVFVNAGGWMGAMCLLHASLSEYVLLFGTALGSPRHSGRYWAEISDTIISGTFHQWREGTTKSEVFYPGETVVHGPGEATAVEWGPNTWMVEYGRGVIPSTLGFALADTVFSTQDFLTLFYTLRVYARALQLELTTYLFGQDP

In article PMC3194046 (European journal of pharmacology, 2009):

Target: sigma1 receptor in guinea pig liver membranes (Cavia porcellus, UniProt Q60492)
Experiment: Saturation equilibrium binding of [3H]-

Compound: CC(C)=CCN1CC[C@]2(C)c3cc(O)ccc3C[C@H]1[C@H]2C [[^3H]-(+)-pentazocine]
- Bmax of [3H]-(+)-pentazocine (guinea pig liver membranes, no added sphingosine): 13.4 ± 0.7 pM/mg
- Bmax of [3H]-(+)-pentazocine binding (in presence of 1 and 5 µM sphingosine): not significantly altered
